According to patent US20190256994A1, “Electrochemical Deposition of Elements in Aqueous Media” (LumiShield Technologies Incorporated, priority 2016, published 2019):

Tests used:
[1] = assay type: physicochemical
[2] = assay type: physicochemical; remark: listed apart in the source
[3] = in water
[4] = 1 M aluminum in water, pH as in same row, glassy carbon working electrode vs Ag/AgCl (3 M NaCl), 50 mV/s
[5] = 0.5 M aluminum in water, pH as in same row (not adjusted), glassy carbon vs Ag/AgCl (3 M NaCl)
[6] = 0.5 M aluminum aqueous solution, not adjusted

In the case of “Aluminum bis(trifluoromethane)sulfonimide [Al(Tf2N)1]”, the “Reduction onset potential/V” value [1, 4] is reported as −1.20 V and the pH ([2]; 1 M aluminum aqueous solution) is reported as 3.30.

With “Aluminum bis(trifluoromethane)sulfonimide [Al(Tf2N)3]” the pH ([2]; 1 M aluminum aqueous solution) was 1.91 and the stability in solution [3] was “stable in solution for months”.

For Aluminum methanesulfonate [Al(MS)1], the “Reduction onset potential/V” value ([1]; 3 M aluminum in water, pH 3.15, glassy carbon vs Ag/AgCl (3 M NaCl), 50 mV/s) was −1.12 V and the pH ([2]; 3 M aluminum aqueous solution) was 3.15.

In the case of Aluminum methanesulfonate [Al(MS)3], the “peak potential for Al3+ reduction” value ([1]; 1 M in water, pH 2.47, vs Ag/AgCl (3 M NaCl)) is reported as “about −1.3 V” and the pH ([2]; 1 M aluminum aqueous solution) is reported as 2.47.

For Aluminum methanesulfonate [Al(MS)6], the “Reduction onset potential/V” value [1, 4] was −1.11 V and the pH ([2]; 1 M aluminum aqueous solution) was 1.00.

With Aluminum p-toluenesulphonate [Al(OTs)3] the “Reduction onset potential/V” value [1, 4] was −1.13 V and the pH ([2]; 1 M aluminum aqueous solution) was 2.36.

In the case of Aluminum p-toluenesulphonate [Al(OTs)6], the “Reduction onset potential/V” value ([1]; 0.5 M aluminum in water, pH adjusted to 1.35 with NH4OH, glassy carbon vs Ag/AgCl (3 M NaCl)) is reported as −1.17 V, the “Reduction onset potential/V” value [1, 5] is reported as −0.93 V and the pH ([2]; 0.5 M aluminum aqueous solution, after pH adjustment) is reported as 1.35. The pH [2, 6] was 0.24.

With Aluminum trifluoroacetate [Al(TFA)3] the “Reduction onset potential/V” value [1, 5] was −1.10 V and the pH [2, 6] was 3.17.

For Aluminum trifluoroacetate [Al(TFA)6], the “Reduction onset potential/V” value ([1]; 0.5 M aluminum in water, pH 1.18 (adjusted), glassy carbon vs Ag/AgCl (3 M NaCl)) was −1.07 V, the “Reduction onset potential/V” value ([1]; 0.5 M aluminum in water, pH 3.34 (adjusted), glassy carbon vs Ag/AgCl (3 M NaCl)) was −1.32 V and the “Reduction onset potential/V” value [1, 5] was “only gas”. For the same substance, the pH [2, 6] was 0.78.

For “Aluminum trifluoromethanesulfonate [Al(OTf)6]”, the “Reduction onset potential/V” value [1, 4] was −1.35 V and the pH ([2]; 1 M aluminum aqueous solution) was 2.82.

Where two headings read alike, the source gives them in different places.
